## Measured affinities in a library of Ab-95 light chain variants

The target is the same throughout: PDVDLGDISGINAS, from the HR2 region of SARS-CoV-2 spike.

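The starting antibody came from a phage panning campaign against this peptide. The library (AAYL52) carries one to three amino acid substitutions per variant, with no insertions or deletions. In AlphaSeq, yeast of one mating type display the scFv and yeast of the other type display the target. Pairs that bind mate more often; barcode pairs of the diploids are counted by sequencing. The ratio of observed to expected reads was calibrated, replicate by replicate, on BCL2-family standards whose Kd was known from biolayer interferometry. The assay was run in three technical replicates.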

Each scFv is VH, three GGGGS repeats, VL, as in the parent Ab-95, and differs from it in the CDRs of the light chain only.
VH: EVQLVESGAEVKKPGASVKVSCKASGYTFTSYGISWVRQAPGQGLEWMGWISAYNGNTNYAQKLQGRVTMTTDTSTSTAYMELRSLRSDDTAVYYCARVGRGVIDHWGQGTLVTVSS
VL: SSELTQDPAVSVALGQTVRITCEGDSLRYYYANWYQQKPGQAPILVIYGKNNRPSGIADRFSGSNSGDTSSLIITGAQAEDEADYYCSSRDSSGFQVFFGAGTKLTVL

Each variant's VL is given in full. Every variant below is changed at Y31 of the VL (sequential numbering). Scale: log10 of Kd in nM, estimated from mating counts; low values are strong binders. The mean shown is taken over the replicates in which the pair was detected. An entry "nd" has no value in the source: the pair was not observed among the diploids in that replicate. This suggests poor binding but is not conclusive. Order: sorted from the lowest average up, undetected variants last.

Variant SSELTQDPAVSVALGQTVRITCEGDYLRYPNANWYQQKPGQAPILVIYGKNNRPSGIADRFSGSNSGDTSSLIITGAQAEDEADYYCSSRDSSGFQVFFGAGTKLTVL gave 2.01, 1.54, 1.25 (mean 1.60; controls 2 of 9). For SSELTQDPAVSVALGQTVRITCEGDSLRYYGANWYQQKPGQAPILVIYGKNNRPSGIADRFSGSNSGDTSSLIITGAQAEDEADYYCSSRDSSGSAVFFGAGTKLTVL, the assay gave 2.24, 2.25, 1.84 (mean 2.11; controls 6 of 9). Variant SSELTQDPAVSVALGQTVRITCEGDSLRYRCANWYQQKPGQAPILVIYGKNNRPSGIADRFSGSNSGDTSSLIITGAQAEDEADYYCSSYDSSGFQVFFGAGTKLTVL gave 2.26, 2.88, 1.83 (mean 2.32; controls 1 of 9). Variant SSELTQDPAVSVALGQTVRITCEGDSLRYYMSNWYQQKPGQAPILVIYGKNNRPSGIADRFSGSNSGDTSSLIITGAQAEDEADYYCSSRDSSGFQVFFGAGTKLTVL showed 2.36, 2.59, 2.15 (mean 2.37; controls 2 of 9). Variant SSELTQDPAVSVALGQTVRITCEGDSLRYYPACWYQQKPGQAPILVIYGKNNRVSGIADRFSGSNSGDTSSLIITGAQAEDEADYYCSSRDSSGFQVFFGAGTKLTVL showed 2.53, 2.90, 3.03 (mean 2.82; controls 5 of 9). For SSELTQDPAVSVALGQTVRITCEGDSLRYYVANWYQQKPGQAPILVIYGKNNRCSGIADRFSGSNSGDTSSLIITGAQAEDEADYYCSSRDKSGFQVFFGAGTKLTVL, the assay gave 3.11, 2.59, 2.79 (mean 2.83; controls 5 of 9). Variant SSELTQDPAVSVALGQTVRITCEGDSLRYYRANWYQQKPGQAPILVIYGKNNRPLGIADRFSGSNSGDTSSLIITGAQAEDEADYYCSSRDSWGFQVFFGAGTKLTVL showed 2.99, 3.04, 2.62 (mean 2.88; controls 3 of 9). Variant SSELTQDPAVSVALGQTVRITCEGDQLRYYFQNWYQQKPGQAPILVIYGKNNRPSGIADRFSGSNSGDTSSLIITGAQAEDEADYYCSSRDSSGFQVFFGAGTKLTVL showed 3.08, 2.32, 3.66 (mean 3.02; controls 3 of 9).

With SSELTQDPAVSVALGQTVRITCEGDSLFYYKANWYQQKPGQAPILVIYGKNSRPSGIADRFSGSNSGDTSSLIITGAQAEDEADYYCSSRDSSGFQVFFGAGTKLTVL the result was 3.17, 2.92, 3.58 (mean 3.22; controls 1 of 9). Variant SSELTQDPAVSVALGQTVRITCEGDSLRYYPANWYQQKPGQAPILVIYGKANRPSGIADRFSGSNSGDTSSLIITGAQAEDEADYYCSSRDSVGFQVFFGAGTKLTVL gave 2.67, nd, 3.86 (mean 3.27; controls 4 of 9). With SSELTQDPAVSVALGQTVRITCEGDSLRYIIFNWYQQKPGQAPILVIYGKNNRPSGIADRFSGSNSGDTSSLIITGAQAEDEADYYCSSRDSSGFQVFFGAGTKLTVL the result was 3.32, nd, nd (controls 2 of 9). For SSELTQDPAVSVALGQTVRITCEGDSLQYYIANWYQQKPGQAPILVIYGKNNRPSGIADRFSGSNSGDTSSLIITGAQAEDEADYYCSSRDSSGFQVFFGAGTKLTVL, the assay gave 3.40, 3.73, nd (mean 3.57; controls 1 of 9). Variant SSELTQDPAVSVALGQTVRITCEGDSLRYYKANWYQQKPGQAPILVIYGKNNRVSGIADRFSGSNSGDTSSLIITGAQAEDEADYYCSSVDSSGFQVFFGAGTKLTVL showed 3.28, 3.80, 3.78 (mean 3.62; controls 4 of 9). Variant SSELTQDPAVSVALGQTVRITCEEDSVRYYEANWYQQKPGQAPILVIYGKNNRPSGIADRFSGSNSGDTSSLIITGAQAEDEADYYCSSRDSSGFQVFFGAGTKLTVL showed 4.72, 3.13, nd (mean 3.92; controls 3 of 9). With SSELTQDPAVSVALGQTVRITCEGDSLFYYRYNWYQQKPGQAPILVIYGKNNRPSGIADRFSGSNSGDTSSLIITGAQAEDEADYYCSSRDSSGFQVFFGAGTKLTVL the result was nd, nd, nd (controls 2 of 9).

For reference, 2 entries of the list once more:

| VL | replicates, log10 nM | mean log10 Kd (nM) | signal with controls |
|---|---|---|---|
| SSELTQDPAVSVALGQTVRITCEGDYLRYPNANWYQQKPGQAPILVIYGKNNRPSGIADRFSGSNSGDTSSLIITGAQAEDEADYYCSSRDSSGFQVFFGAGTKLTVL | 2.01, 1.54, 1.25 | 1.60 | 2 of 9 |
| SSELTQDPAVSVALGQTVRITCEGDSLRYYRANWYQQKPGQAPILVIYGKNNRPLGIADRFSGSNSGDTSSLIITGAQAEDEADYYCSSRDSWGFQVFFGAGTKLTVL | 2.99, 3.04, 2.62 | 2.88 | 3 of 9 |

Three control strains display no target. For library AAYL52, 28% of the pairings with them gave a signal, with a median of 3.91 and one signal in twenty below 2.90, so weak values seen in few replicates may be background. For each scFv, signals with the empty controls are counted beside the result. In this assay the parent's reference entry averaged 2.31; its copy inside this library read 2.25.

Data: MIT Lincoln Laboratory AlphaSeq set, Engelhart et al. 2022, doi:10.1038/s41597-022-01779-4, as distributed in FLAb.